Source: ChEMBL document CHEMBL3826913 (Eur J Med Chem, 2016)

By UniProt entry, the sequences of proteins in these tests, tags left out.
UniProt P09874, whole entry: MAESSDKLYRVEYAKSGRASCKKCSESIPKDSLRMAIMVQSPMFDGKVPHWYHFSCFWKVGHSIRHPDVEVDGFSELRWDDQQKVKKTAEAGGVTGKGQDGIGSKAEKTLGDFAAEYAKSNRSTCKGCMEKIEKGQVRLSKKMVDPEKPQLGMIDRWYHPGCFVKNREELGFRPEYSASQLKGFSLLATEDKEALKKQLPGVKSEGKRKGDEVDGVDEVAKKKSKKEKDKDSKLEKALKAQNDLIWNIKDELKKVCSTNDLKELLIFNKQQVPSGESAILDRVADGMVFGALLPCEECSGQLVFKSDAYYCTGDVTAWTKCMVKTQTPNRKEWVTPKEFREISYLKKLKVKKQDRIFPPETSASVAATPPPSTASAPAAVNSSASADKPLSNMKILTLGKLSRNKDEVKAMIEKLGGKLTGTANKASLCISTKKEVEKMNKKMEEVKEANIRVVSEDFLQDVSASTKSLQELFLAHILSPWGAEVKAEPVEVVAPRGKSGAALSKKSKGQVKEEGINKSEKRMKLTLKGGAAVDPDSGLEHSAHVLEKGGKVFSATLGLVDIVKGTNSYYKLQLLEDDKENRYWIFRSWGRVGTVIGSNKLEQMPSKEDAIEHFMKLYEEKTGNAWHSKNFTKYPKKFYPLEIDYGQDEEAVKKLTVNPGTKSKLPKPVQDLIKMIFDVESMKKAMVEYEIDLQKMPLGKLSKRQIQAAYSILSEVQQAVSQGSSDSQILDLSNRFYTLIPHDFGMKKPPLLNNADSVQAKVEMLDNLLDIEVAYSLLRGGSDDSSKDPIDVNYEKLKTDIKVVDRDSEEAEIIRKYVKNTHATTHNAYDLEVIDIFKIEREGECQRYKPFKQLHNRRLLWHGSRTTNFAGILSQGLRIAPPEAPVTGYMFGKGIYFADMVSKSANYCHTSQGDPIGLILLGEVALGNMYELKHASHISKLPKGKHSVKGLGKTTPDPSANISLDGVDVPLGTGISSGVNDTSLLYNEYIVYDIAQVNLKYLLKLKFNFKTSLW

Key:
HT-29 [1] = assay: cells; conditions: Homo sapiens, HT-29, read-out: INH
HT-29 [2] = assay: cells; conditions: Homo sapiens, HT-29, read-out: INH; remark: listed apart in the source
HT-29 [3] = assay: cells; conditions: Homo sapiens, HT-29, read-out: INH; remark: listed apart in the source
[4] = molecular target: Poly [ADP-ribose] polymerase tankyrase-2 (Homo sapiens, UniProt Q9H2K2); assay: biochemical
[5] = molecular target: Poly [ADP-ribose] polymerase 1 (Homo sapiens, UniProt P09874)
[6] = molecular target: T1, Poly [ADP-ribose] polymerase tankyrase-1 (Homo sapiens, UniProt O95271)
T1 sequence (O95271 whole entry): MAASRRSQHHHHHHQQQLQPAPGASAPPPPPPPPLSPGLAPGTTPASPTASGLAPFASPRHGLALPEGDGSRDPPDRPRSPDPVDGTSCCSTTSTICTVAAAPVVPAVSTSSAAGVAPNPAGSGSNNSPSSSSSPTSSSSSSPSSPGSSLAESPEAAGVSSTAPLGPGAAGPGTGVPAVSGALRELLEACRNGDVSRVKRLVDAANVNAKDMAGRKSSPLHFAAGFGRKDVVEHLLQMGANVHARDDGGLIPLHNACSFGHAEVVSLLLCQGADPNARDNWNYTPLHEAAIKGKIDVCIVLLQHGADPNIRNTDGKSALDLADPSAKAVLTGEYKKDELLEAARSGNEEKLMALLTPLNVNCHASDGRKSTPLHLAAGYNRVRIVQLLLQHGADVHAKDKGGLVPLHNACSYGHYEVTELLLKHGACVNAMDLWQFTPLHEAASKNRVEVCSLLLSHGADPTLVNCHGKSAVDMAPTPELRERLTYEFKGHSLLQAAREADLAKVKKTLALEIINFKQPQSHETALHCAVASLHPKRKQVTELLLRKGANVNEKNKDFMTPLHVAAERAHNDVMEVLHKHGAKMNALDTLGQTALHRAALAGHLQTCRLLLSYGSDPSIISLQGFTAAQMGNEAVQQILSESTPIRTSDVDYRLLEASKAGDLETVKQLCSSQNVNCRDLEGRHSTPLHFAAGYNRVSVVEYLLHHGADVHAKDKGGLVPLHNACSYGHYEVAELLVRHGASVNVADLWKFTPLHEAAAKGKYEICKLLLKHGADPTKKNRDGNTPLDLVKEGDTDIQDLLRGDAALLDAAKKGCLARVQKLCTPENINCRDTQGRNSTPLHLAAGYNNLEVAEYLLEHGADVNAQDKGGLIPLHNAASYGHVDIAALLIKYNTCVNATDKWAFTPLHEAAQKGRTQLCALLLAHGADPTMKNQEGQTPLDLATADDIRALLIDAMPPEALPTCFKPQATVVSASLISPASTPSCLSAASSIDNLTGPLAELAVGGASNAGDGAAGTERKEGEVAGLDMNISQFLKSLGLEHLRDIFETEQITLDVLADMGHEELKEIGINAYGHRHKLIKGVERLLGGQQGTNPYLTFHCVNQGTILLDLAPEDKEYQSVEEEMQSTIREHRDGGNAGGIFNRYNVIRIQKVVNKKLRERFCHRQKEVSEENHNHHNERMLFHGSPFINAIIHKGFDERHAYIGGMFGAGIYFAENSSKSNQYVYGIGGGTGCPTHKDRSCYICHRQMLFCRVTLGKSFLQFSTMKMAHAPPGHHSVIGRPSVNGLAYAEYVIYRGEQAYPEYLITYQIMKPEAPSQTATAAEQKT

| SMILES | inhibition at 100 µM (HT-29 [1]) | inhibition at 10 µM (HT-29 [2]) | inhibition at 1 µM (HT-29 [3]) | IC50 [4] | IC50 [5] | IC50 [6] |
| --- | --- | --- | --- | --- | --- | --- |
| COc1ccc(-c2nc(O)c3cccc(C)c3n2)cc1 | 11% | 1% | 14% | – | – | – |
| O=c1[nH]c(-c2ccccc2)nc2cscc12 | 19% | 0% | 4% | – | – | – |
| Cc1cccc2c(O)nc(-c3ccc(O)cc3)nc12 | 72% | 15% | 8% | – | – | – |
| COc1ccc(-c2nc(O)c3ccccc3n2)cc1 | 0% | 0% | 10% | – | – | – |
| Cc1cccc2c(O)nc(-c3ccc([N+](=O)[O-])cc3)nc12 | 0% | 0% | 2% | – | – | – |
| Oc1ccc(-c2nc(O)c3cccc(O)c3n2)cc1 | 86% | 20% | 0% | 86 nM | 856 nM | 156 nM |
| O=c1[nH]c(-c2ccc(F)cc2)nc2c(O)cccc12 | 0% | 0% | 0% | 263 nM | 1360 nM | 101 nM |
| Cc1cccc2c(O)nc(-c3ccc(N)cc3)nc12 | 0% | 0% | 0% | – | – | – |
| COc1ccc(-c2nc3ccccc3c(=O)[nH]2)cc1 | – | – | – | 611 nM | 2720 nM | 250 nM |
| Cc1ccc(-c2nc3c(O)cccc3c(=O)[nH]2)cc1 | 48% | 28% | 0% | 44 nM | 559 nM | 22 nM |
| COc1cccc2c(O)nc(-c3ccc(N)cc3)nc12 | 22% | 0% | 0% | 1080 nM | 1590 nM | 1280 nM |
| COc1ccc(-c2nc(O)c3cccc(OC)c3n2)cc1 | 8% | 1% | 0% | 128 nM | 1240 nM | 346 nM |
| Cc1ccc(-c2nc3c(C)cccc3c(=O)[nH]2)cc1 | 2% | 3% | 2% | – | – | – |
| Cc1ccc(-c2nc3ccccc3c(=O)[nH]2)cc1 | 4% | 36% | 9% | 540 nM | 424 nM | 346 nM |
| Nc1ccc(-c2nc(O)c3cccc(O)c3n2)cc1 | 87% | 23% | 0% | 219 nM | 289 nM | 83 nM |
| O=[N+]([O-])c1ccc(-c2nc(O)c3cccc(O)c3n2)cc1 | 0% | 0% | 0% | 191 nM | 105 nM | 58 nM |
| Oc1nc(-c2ccc(C(F)(F)F)cc2)nc2c(O)cccc12 | 0% | 0% | 2% | 25 nM | 3110 nM | 53 nM |
| COc1cccc2c(=O)[nH]c(-c3ccc(C)cc3)nc12 | 20% | 0% | 0% | 167 nM | 2400 nM | 153 nM |
| Nc1ccc(-c2nc3ccccc3c(=O)[nH]2)cc1 | 39% | 5% | 0% | 690 nM | 1300 nM | 786 nM |
| Cc1cccc2c(=O)[nH]c(-c3ccc(CN)cc3)nc12 | 100% | 4% | 0% | 43 nM | 266 nM | 907 nM |
| Cc1cccc2c(O)nc(-c3ccccc3)nc12 | 14% | 10% | 10% | – | – | – |
| O=c1[nH]c(-c2ccc(O)cc2)nc2ccccc12 | 60% | 12% | 13% | – | – | – |
